Measurements taken from US9611252B2 (LifeSci Pharmaceuticals, Inc., priority 2013, dated 2017).

Amino acid sequences for entries named in this document (tags omitted). Residues count along the entry.
UniProt P03952, 20-638: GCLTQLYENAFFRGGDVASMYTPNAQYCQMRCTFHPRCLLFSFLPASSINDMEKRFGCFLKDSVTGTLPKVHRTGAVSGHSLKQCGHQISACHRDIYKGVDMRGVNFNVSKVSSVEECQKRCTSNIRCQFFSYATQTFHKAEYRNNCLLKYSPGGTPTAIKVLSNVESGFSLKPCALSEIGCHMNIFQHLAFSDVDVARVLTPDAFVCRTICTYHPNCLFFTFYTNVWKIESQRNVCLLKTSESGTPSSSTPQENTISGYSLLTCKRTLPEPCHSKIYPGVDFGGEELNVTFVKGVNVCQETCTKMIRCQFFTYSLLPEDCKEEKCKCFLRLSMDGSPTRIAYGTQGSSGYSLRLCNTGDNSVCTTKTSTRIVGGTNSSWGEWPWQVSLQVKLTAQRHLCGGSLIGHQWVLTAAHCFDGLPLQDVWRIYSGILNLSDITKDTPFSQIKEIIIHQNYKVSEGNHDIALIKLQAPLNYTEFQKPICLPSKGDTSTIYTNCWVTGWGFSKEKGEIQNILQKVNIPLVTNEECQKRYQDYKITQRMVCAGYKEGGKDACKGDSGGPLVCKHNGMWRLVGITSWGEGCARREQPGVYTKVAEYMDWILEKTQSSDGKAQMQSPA

How the values were obtained:
human Plasma Kallikrein = human Plasma Kallikrein (Homo sapiens (Human), UniProt P03952); assay: In vitro enzyme inhibition of human plasma kallikrein (PFR-AMC cleavage); format: biochemical; settings: Pro-Phe-Arg-AMC substrate, 37° C., read-out: hPK IC50
Description: The ability of the compounds disclosed herein to inhibit human plasma kallikrein activity was quantified according to the procedures below.
A 10 mM solution of the test compound was made in DMSO. […] A control tube containing only DMSO is included. 16 μL of each compound test solution was combined with 384 μL of assay buffer (50 mM Tris-HCl pH 7.5, 150 mM NaCl, 0.01% Triton X-100) to yield a “4× test compound buffer stock”.
These solutions are hereby referred to as 4×hPK and 2×PFR-AMC, respectively.
50 μL was removed from this mixture and placed into duplicate wells on a Microfluor 1Black U-bottom microtiter plate (Thermo Scientific). This plate was incubated for 5 minutes at 37° C. To each well, 50 μL of pre-warmed 2×PFR-AMC was added to start the enzymatic reaction. Cleavage of PFR-AMC was monitored in a Biotek Synergy H4 reader set at 37° C. Readings are taken every 43 seconds for 1 hour. […] The IC50 is calculated using the Gen5 (Biotek Instruments).
The ability of the compounds in Table 3 to inhibit human plasma kallikrein activity was determined.

kallikrein = kallikrein (Homo sapiens (Human), UniProt P03952); assay: In vitro cellular assay (contact assay): kallikrein activity in ellagic acid-activated human plasma, substrate Z-FR-2-AMC; format: biochemical; settings: human plasma activated with ellagic acid, Z-FR-2-AMC substrate, 37° C.
Description: The ability of the compounds disclosed herein to inhibit cellular kallikrein activity was quantified and the respective EC50 value was determined.
All dilutions were prepared in an assay buffer comprising 50 mM Tris-HCl pH 7.2, 150 mM NaCl, and 0.01% Triton X-100.
The ten solutions of the test compounds, prepared by serial dilution, were further diluted 50-fold in the assay buffer.
Human plasma is thawed on ice and centrifuged for 15 min at 4° C. to remove platelets. A 1 mM stock solution of ellagic acid is diluted to 8 μM and mixed with human plasma, after removing platelets, at a ratio of 1:0.8. […]
The enzyme reaction was quantified by immediate kinetic reading of the assay plate using excitation/emission wavelengths of 330 nm/440 nm respectively. Fluorescence intensity was recorded for 60 min, using a time interval of 43 sec.
The inhibition activity of the test compounds were evaluated using the IC50 values, calculated according to the dose-response curve of the test compounds, fitted using the “log(inhibitor)-response (variable slope)” equation in GraphPadPrism software (GraphPad Software, Inc.).
The percentage inhibition was calculated using the following equation:
[formula] where, Mean(BG) is the average value of the fluorescence intensity of the background wells and Mean(PC) is the average value of the fluorescence intensity of the positive control wells. […]

SMILES	IC50 (human Plasma Kallikrein)	EC50 (kallikrein)
Cc1cc(N)nc(C)c1CNC(=O)c1ccnc(Cc2cc(C#N)c3ncc(Cl)cc3c2)c1 [Example 50, N-((6-amino-2,4-dimethylpyridin-3-yl)methyl)-2-((3-chloro-8-cyanoquinolin-6-yl)methyl)isonicotinamide]	< 100 nM	
Cc1cc(N)nc(C)c1CNC(=O)c1ccnc(Cc2cc(C(N)=O)c3ncc(Cl)cc3c2)c1 [Example 58, 6-((4-(((6-amino-2,4-dimethylpyridin-3-yl)methyl)carbamoyl)pyridin-2-yl)methyl)-3-chloroquinoline-8-carboxamide]	< 100 nM	< 100 nM
